Earlier results, collected in US5420106A, “Method and composition having enhanced alpha-hydroxy acid skin permeation and retention” (priority 1994, dated 1995).

Details: hydrated skin; cited from earlier work

CO [methanol]
permeation or permeation rate on hydration of skin: permeation is unaltered by hydration
